The text below walks through data of article PMC9802239 (Journal of Molecular Cell Biology, 2022).

In the experiment the target is 6x His-tagged Aurora B (full length) (UniProt Q96GD4). Nature of the experiment: pull-down.

B1: GST-CENP-R (natural protein, human, UniProt Q13352 1-177, looked up)
chain: MPVKRSLKLDGLLEENSFDPSKITRKKSVITYSPTTGTCQMSLFASPTSSEEQKHRNGLSNEKRKKLNHPSLTESKESTTKDNDEFMMLLSKVEKLSEEIMEIMQNLSSIQALEGSRELENLIGISCASHFLKREMQKTKELMTKVNKQKLFEKSTGLPHKASRHLDSYEFLKAILN
In the case of B1, the binding result is reported as “binds”.
